The values below come from patent US20100098761A1, “Polymer Compositions For Biomedical And Material Applications” (University of Massachusetts Medical School, priority 2007, published 2010).

The subject of this test is murine myoblast C2C12 cells. Kind of test: Osteogenic trans-differentiation of C2C12 cells (ALP stain). In kind it is cell-based, mouse. As for the experimental part: Grafts (5×5×1 mm, FlexBone 25% HA-25% TCP) were pre-absorbed with varying amounts of growth factors and cytokines to provide an exogenous supply for remodeling. Grafts loaded with growth factors rhBMP-2, rmRANKL, and rhVEGF165 were analyzed at the respective preferred doses. The preferred loading dose of RANKL (10 ng/FlexBone graft) was determined by the osteoclastic differentiation of macrophage RAW264.7, induced by the RANKL released from the graft as indicated by positive TRAP stains (purple) of multinucleated cells on Day 6. […] The preferred loading dose of rhBMP-2/7 heterodimer (40 ng/FlexBone graft) was determined by the osteogenic differentiation of C2C12 cells induced by the BMP-2/7 released from the graft in culture. […] Finally, the preferred loading dose of rhVEGF165 in stimulating the proliferation of human vascular endothelial cells in culture was determined to be 5 ng/graft.
Materials. […] The compressive behavior of FlexBone in fully hydrated state as a function of TCH content was analyzed using a Q800 Dynamic Mechanical Analyzer (DMA, TA Instruments) equipped with a submersion compression fixture. […] An L-square was used to make sure that the sanded top and bottom surfaces were parallel prior to testing, and the final dimensions of each specimen were measured by a digital caliper. […]

B1: rhBMP-2/7: recombinant human bone morphogenetic protein-2/7 heterodimer, R&D Systems (protein, UniProt P12643 283-396; P18075 293-431, looked up)
Bone morphogenetic protein 2: QAKHKQRKRLKSSCKRHPLYVDFSDVGWNDWIVAPPGYHAFYCHGECPFPLADHLNSTNHAIVQTLVNSVNSKIPKACCVPTELSAISMLYLDENEKVVLKNYQDMVVEGCGCR
Bone morphogenetic protein 7: STGSKQRSQNRSKTPKNQEALRMANVAENSSSDQRQACKKHELYVSFRDLGWQDWIIAPEGYAAYYCEGECAFPLNSYMNATNHAIVQTLVHFINPETVPKPCCAPTQLNAISVLYFDDSSNVILKKYRNMVVRACGCH
modifications: heterodimer
notes: recombinant human bone morphogenetic protein-2/7 heterodimer, R&D Systems
Turning to B1, for the setting “determined by osteogenic differentiation of C2C12 cells induced by released BMP-2/7”, the preferred loading dose was determined as 40 ng/FlexBone graft. Further, the “osteogenic trans-differentiation (ALP activity)” value (single dose 40-ng/mL directly in culture without graft carrier, day three) is recorded as “able to induce osteogenic trans-differentiation of C2C12”.
